Target: Phosphatidylinositol 4,5-bisphosphate 3-kinase catalytic subunit alpha isoform (Homo sapiens, UniProt P42336)
Assay: Inhibition of PI3Kalpha

Sequences of proteins named here, by UniProt entry; tags and fusion partners are left off.
UniProt P42336, whole entry: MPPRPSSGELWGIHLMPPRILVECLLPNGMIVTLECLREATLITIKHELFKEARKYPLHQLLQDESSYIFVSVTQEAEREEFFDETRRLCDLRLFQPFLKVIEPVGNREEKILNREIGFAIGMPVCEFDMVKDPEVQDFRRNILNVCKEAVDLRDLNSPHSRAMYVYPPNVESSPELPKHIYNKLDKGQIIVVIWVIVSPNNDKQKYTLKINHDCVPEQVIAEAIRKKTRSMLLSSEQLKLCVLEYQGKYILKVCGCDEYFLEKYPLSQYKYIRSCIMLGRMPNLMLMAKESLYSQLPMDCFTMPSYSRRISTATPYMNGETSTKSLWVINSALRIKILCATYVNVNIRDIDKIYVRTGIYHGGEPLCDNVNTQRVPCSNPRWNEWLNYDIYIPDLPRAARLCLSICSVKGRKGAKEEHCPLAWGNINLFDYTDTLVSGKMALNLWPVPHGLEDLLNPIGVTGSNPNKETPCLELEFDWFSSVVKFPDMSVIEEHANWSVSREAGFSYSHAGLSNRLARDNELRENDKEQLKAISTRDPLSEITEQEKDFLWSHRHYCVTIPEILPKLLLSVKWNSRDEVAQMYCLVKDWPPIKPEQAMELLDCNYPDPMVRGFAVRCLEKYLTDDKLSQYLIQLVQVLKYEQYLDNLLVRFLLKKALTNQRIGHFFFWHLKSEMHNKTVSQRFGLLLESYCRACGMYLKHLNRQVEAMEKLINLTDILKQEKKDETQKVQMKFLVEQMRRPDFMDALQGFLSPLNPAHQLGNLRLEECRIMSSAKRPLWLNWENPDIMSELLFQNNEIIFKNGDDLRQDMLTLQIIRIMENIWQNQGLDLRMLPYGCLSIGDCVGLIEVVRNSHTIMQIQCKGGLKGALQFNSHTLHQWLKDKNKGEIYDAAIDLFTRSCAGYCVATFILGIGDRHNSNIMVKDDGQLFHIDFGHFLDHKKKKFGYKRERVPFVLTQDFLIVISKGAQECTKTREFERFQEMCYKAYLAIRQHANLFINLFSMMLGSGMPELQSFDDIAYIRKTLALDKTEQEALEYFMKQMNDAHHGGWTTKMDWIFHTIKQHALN

IC50: 305 nM
SMILES: CNC(=O)Nc1ccc(-c2nc(N3CC4CCC(C3)O4)c3cnn(C4CCC5(CC4)OCCCO5)c3n2)cc1

Reference: ChEMBL document CHEMBL1156873, “Pyrazolopyrimidines as highly potent and selective, ATP-competitive inhibitors of the mammalian target of rapamycin (mTOR): optimization of the 1-substituent” (Bioorg Med Chem Lett, 2010)
